According to PMC8155056, “Cooperative inhibition of SNARE-mediated vesicle fusion by α-synuclein monomers and oligomers” (Scientific Reports, 2021):

Key:
[1] = molecular target: synaptobrevin-2 (amino acids 1–116; one cysteine was replaced with alanine), reconstituted in v-vesicles (UniProt P63045)
[2] = molecular target: synaptobrevin-2 (amino acids 1–116; one cysteine was replaced with alanine), reconstituted in v-vesicles (UniProt P63045); remark: listed apart in the source

dopamine-induced α-Syn oligomers (from UniProt P37840 1-140) (complex)
in vitro lipid mixing (FRET, DiI/DiD) of t-vesicles and v-vesicles with 10 nM α-Syn oligomers, 37 °C: reduction of lipid mixing [1]: 50%

α-Syn monomer (wild type) (from UniProt P37840 1-140) (natural protein)
in vitro lipid mixing of t-vesicles and v-vesicles without PS (0% PS) with 10 nM α-Syn oligomers and wild-type α-Syn monomer (200 nM to 2 μM): recovery of lipid mixing [2]: 100%
